{
  "source": "patent US20180125993A1",
  "about": "(BEIJING COTIMES BIOTECH COMPANY LIMITED, priority 2014, published 2018)",
  "tested_on": "MIA-PaCa-2",
  "assay": "Human pancreatic cancer MIA-PaCa-2 subcutaneous model (34 days of treatment)",
  "settings": "Gemcitabine 60 mg/kg i.p. Q3d × 6W",
  "data": [
    {"molecule": "Nc1ccn([C@@H]2O[C@H](CO)[C@@H](O)C2(F)F)c(=O)n1", "note": "[Gemcitabine, reference compound]", "values": [
      {"measurement": "T/C % (Calculated using tumor volumes)", "value": 47.40, "unit": "%"}
    ]}
  ]
}
